Measured values taken from PubChem BioAssay AID651725 (National Center for Advancing Translational Sciences (NCATS), 2012).
The entries are a selection whose mix differs from that of the whole data set. Active and inactive are the calls of the source. Cut-off read from the data, not from the text of the source: active = activity change below about -65%; inconclusive = mostly about -30% to -63%; inactive = weaker than that.

Protein sequences, listed by entry. Tags and fused reporters are not part of them.
UniProt Q15475, whole entry: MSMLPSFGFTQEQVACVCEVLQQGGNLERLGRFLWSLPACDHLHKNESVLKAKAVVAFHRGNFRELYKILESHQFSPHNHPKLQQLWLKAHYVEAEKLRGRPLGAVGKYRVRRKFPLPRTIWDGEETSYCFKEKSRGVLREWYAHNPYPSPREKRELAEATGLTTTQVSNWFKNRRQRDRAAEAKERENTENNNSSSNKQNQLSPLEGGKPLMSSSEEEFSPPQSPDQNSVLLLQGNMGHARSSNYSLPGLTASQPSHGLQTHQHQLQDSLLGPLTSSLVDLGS

target: Homeobox protein SIX1 (Homo sapiens) + Protein phosphatase EYA2 (Homo sapiens) (UniProt Q15475+O00167); experiment: qHTS Assay for Inhibitors of the Six1/Eya2 Interaction; details: AlphaScreen GST-Six1/His-Eya2 binding, biochemical; hits give low values
Text: Its expression is low or undetectable in normal adult breast tissue but the gene is over-expressed in 50% of primary breast tumors and 90% of metastatic lesions. […] Similar to Six1, Eya2 is also not expressed in most normal adult tissues, but is reexpressed in cancers. The Six1-Eya interaction is essential for proliferation during embryonic development, and both Six1 and Eya2 have been independently implicated in the same types of cancer. Because Six1 and Eya2 are embryonic genes with little expression in adult tissues, inhibitors of their expression/activity are likely to have limited side effects. Our goal is to identify inhibitors of the Six1/Eya interaction for potential cancer therapy. To this end, we have developed a homogenous AlphaScreen assay targeting the Six1/Eya interaction. We performed a large scale HTS of the Molecular Libraries Small Molecule Repository (MLSMR) to identify inhibitors of the Six1/Eya interaction as potential anti-cancer therapeutics. Compounds identified can also be used as chemical probes to better understand the biological functions of Six1 and Eya. […]
The first step of the 5 uL AlphaScreen assay is to dispense assay buffer (50 mM Tris, pH 8.0, 300 mM NaCl, 0.05% BSA, 0.02% Tween 20, 1 mM TCEP) into a Greiner 1536 white solid bottom microtiter plate (789175-F). […] The plate is read using a Perkin Elmer Envision using an AlphaScreen protocol.
% is set by controls: 0 for no effect and ±100 for the full control effect.

SMILES | activity change
Nc1ccccc1[As](=O)(O)c1ccccc1 | inactive: -1.28%
